For one data set, the system named is maize pollen. Kind of data set: Relative ROS level in maize pollen (ROS detection kit, fluorometry). The data set is classed as cell-based. Conditions: ratio to 40% sucrose control, final concentration as listed per compound in Table 5, 6-7 measurements. The method, then:
The red channel or bright channel of the photo was analyzed, and the ROS level was represented by the light intensity of the wavelength with the largest proportion. The relative ROS level in a reproductive tissue refers to a ratio of the ROS level of the reproductive tissue to the ROS level in the control group (40% sucrose).
Taking maize pollen as an example, the experiment of a series of compounds that may affect the ROS level in the maize pollen was tested.
All reagents are dissolved in 40% sucrose. The relative ROS levels were from 6-7 measurements.

Another data set relates to maize. The experiment in a line: Haploid induction rate of maize after pollination with reagent-treated pollen. The settings on record: maize pollen treated with saturated MMI.

Take `Cn1cc[nH]c1=S` [Compound 12, Methimazole]: the “Relative ROS Level Bright” value in the data set with maize pollen (bright channel) amounted to 1.12 ± 0.12. The “Relative ROS Level Red” value in the data set with maize pollen (red channel) amounted to 1.15 ± 0.14. In addition, the toxicity to maize entry in the data set on maize is “maize sterility”.

(Values after patent US12501868B2, “Haploid induction compounds and methods for use thereof” (WIMI BIOTECHNOLOGY (HAINAN) CO., LTD., priority 2020, dated 2025).)
